According to article PMC6664433 (Cancer discovery, 2019):

Tests used:
[1] = system: EGFR-mutant NSCLC patients; details: cited from earlier work
[2] = system: H3255GR cells; assay: Cell viability assay; details: cetuximab alone 1μg/ml or 10μg/ml

Row | Compound | PFS ([1]; osimertinib vs comparator arm gefitinib or erlotinib) [months] | median PFS ([1]; patients with an L858R mutation, comparator arm gefitinib or erlotinib) [months] | effect on cell viability [2]
1 | COc1cc2ncnc(Nc3ccc(F)c(Cl)c3)c2cc1OCCCN1CCOCC1 [gefitinib] | 10.2 | 9.5 | –
2 | Cetuximab: anti-EGFR antibody that disrupts EGFR dimers | – | – | had no effect
